“Also recorded” adds a separate entry of the source. Where two headings read alike, the source gives them in different places.
Experiments:
[1] = target: T1, HIGF-1R (Homo sapiens, UniProt P08069); experiment: IGF-1R affinity, scintillation proximity assay (SPA assay), 125I-IGF1 displacement; type: binding
T1 construct: HIGF-1R was purified from a cell culture of BHK cells stably transfected with IGF-1R cDNA; made in house; host or cells: BHK cells stably transfected with IGF-1R cDNA
Protocol: In certain cases, a scintillation proximity assay (SPA assay) was used to determine IGF-1R affinity. Briefly, anti-mouse SPA beads were mixed with an HIGF-1R antibody (24-31) and WGA-purified HIGF-1R from transfected cells. The binding buffer was 0.1 M Hepes, pH 7.8, 0.1 M NaCl, 10 mM MgCl2, 0.025% Tween-20, 0.5% BSA. To this mixture was added ^125I-IGF1 and a dilution series of IGF1 or the peptide to be determined.

Sequences of proteins named here, by UniProt entry; tags and fusion partners are left off. Residues count along the entry.
UniProt P08069, 741-1367 limits assumed: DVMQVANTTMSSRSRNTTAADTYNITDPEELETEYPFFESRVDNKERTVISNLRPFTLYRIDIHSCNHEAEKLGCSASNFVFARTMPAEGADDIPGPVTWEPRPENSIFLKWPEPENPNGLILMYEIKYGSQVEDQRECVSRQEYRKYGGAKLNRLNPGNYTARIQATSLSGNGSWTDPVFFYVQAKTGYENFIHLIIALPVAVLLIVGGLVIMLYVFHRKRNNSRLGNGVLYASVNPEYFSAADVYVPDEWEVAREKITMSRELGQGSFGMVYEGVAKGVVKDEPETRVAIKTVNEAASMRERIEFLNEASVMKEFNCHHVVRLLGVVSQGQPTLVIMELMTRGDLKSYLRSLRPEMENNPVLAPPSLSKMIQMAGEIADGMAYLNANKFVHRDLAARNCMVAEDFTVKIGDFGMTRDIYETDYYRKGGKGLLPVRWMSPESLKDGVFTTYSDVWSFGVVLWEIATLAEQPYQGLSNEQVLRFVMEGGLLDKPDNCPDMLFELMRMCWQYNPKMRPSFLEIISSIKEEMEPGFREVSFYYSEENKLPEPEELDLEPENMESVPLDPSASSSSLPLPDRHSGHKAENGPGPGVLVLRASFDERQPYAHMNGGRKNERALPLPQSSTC
UniProt P08069, 31-736 limits assumed: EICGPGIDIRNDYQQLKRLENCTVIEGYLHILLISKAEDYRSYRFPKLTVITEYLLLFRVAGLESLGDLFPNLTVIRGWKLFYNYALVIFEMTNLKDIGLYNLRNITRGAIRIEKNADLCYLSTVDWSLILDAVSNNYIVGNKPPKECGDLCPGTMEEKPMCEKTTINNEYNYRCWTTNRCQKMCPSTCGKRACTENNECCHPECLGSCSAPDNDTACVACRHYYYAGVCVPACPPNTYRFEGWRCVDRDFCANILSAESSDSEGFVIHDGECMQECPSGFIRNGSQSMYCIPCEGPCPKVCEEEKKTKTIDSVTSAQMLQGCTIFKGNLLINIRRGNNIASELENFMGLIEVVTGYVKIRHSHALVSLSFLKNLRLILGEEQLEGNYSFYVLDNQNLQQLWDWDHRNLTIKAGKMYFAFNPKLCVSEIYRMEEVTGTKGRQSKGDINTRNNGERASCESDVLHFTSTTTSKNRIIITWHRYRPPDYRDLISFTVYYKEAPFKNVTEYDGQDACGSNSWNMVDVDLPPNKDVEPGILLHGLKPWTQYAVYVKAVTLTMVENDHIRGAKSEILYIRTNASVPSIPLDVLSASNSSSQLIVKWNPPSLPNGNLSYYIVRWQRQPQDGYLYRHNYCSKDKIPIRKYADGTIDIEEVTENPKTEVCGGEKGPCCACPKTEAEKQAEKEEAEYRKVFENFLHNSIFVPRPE
UniProt P08069, 741-935 limits assumed: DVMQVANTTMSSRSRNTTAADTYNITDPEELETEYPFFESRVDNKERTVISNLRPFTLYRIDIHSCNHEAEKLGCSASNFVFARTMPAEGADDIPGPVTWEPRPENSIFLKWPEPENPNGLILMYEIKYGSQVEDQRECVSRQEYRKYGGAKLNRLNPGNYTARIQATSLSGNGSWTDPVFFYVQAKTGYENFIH

[2] = target: T2, His-tagged soluble recombinant human IGF-IR (srhIGF-1R-his) (Homo sapiens, UniProt P08069); experiment: ALPHAScreen competition binding assay, biotinylated hIGF-1
T2 construct: The extra-cellular domain of IGF-1R was obtained as a recombinant protein from R&D Systems; purchased R&D Systems, Inc., Minneapolis, Minn
Protocol: Binding Assays. […] Detection of the receptor ligand interaction was measured in an amplified luminescent proximity homogeneous assay (ALPHAScreen; BioSignal-Packard, Montreal). The assay was performed in 384-well Nunc™ white polystyrene microplates (Nalge Nunc International, Naperville, Ill.) with a final volume of 40 μL. […] Each concentration of competitor was assayed in duplicate. Non-specific binding was determined in the presence of 3×10^−5 M hIGF-1. The second step of the assay was to add acceptor beads and the incubation continued for 0.5 hr. The final step was to add donor beads and the incubation continued for an additional 1 hr. […] Primary data were background corrected, normalized to buffer controls and then expressed as % Specific Binding. The data were fit to a four-parameter non-linear regression analysis (y=min+(max-min)/(1+10̂((log IC50-x)*Hillslope))), which was used to determine IC50 values. The Z′-factor for this assay is greater than 0.7 (Z′=1-(3σ++3σ−)/|μ+−μ−|) and the signal-to-background (SB) ratio was between 40 and 70.

[3] = target: T3, Human IGF-1R (HIGF-1R) (Homo sapiens, UniProt P08069); experiment: IGF-1R affinity study, 125I-IGF-1 competition, PEG precipitation (PEG-assay); type: binding; conditions: read-out: HIGFIR affinity (PEG-assay)
T3 construct: HIGF-1R was purified from a cell culture of BHK cells stably transfected with IGF-1R cDNA; made in house; host or cells: BHK cells stably transfected with IGF-1R cDNA
Protocol: IGF-1R affinity studies were generally performed as follows. […] HIGF-1R was purified from a cell culture of BHK cells stably transfected with IGF-1R cDNA. The day before harvest cells were moved to serum free conditions and before harvest the cells were rinsed with and ice cold PBS solution. The cells were solubilized in cold lysis buffer (4 ml lysis buffer/1×10^8 cells); vortexed vigorously to lysis in lysis buffer (50 mM Hepes (pH 8.0); 150 mM NaCl; 1% Triton X-100; 2 mM EDTA; 10 μg/mlaprotinin; 0.5 mM PEFABLOC (Roche)); and the lysate centrifuged at 4° C., 20000 rpm, for 15 minutes. The HIGF-1R portion was absorbed to WGA-agarose beads and subjected to chromatography purification (Pharmacia biotech No 17-0760-01) (column washed with 20× column volumes wash buffer −50 mM Hepes (pH 8.0); 150 mM NaCl; 0.1% Triton X-100; 0.5 mM PEFABLOC (Roche)). The HIGF-1R portion was then eluted with 0.5 M n-Acetyl Glycosamine (NAG), 10% Glycerol in elution buffer (50 mM Hepes (pH 8.0); 150 mM NaCl; 0.1% Triton X-100; 0.5 mM PEFABLOC (Roche); 0.5 M n-acetyl glucosamine; 10% glycerol). […] After equilibration for 2 days at 4° C., each sample (200 μl) typically was precipitated by addition of 400 μl 25% PEG 6000, centrifuged, washed with 1 ml 15% PEG 6000, and counted in a gamma-counter. In some cases, human insulin receptor (HIR) affinity for select test peptides was similarly measured.

[4] = target: MCF-7S8 cells (Homo sapiens, UniProt P08069); experiment: cell growth/density, mitochondrial activity assay (WST-1), MCF-7S8; type: cell-based; conditions: for IC50 in MCF-7S8: alone: second value of the cell, basal level in 0.5% FCS, unit not given; for IC50 in MCF-7S8: in presence of IGF-1: first value of the cell, 10 nM IGF-1, cells in words only = effect as reported, 72 hours, no unit in head (SW480 column: M)
Protocol: For cell growth/density studies, a mitochondrial activity assay was used, as exemplified by the following. Cells (SW480, MCF-7S8) were propagated in complete medium (DME: F12, 10% FCS (SW 480) or 5% FCS (MCF-7S8, P/S)), trypsinized, and seeded in 96 well plates as 10,000 cells/well in medium with 0.5% FCS. All wells in the periphery were omitted and only filled with medium. […] All treatments are made in triplicates. […] Treatment was continued for 48 hours (SW480 cells) or 72 hours (MCF-7S8 cells) before quantification of the cell density. Media was exchanged each day. Media and peptides were diluted in DMSO. When measuring cell density, the volume of each well was adjusted to […] Pre-diluted WST-1 (1 ml+1.5 ml DME:F12) was added as 25 μL to each well including background samples. Three wells with media only served as background controls. The cells were incubated for 90 min protected against light in an incubator.

[5] = target: MCF7 cells (Homo sapiens, UniProt P08069); type: cell-based
Protocol: Additional binding and antagonism assays using candidate peptides were performed. […] Cell viability was determined by luminescence assay and IC50 was calculated using standard techniques.

[6] = read-out: HIGFIR Affinity (SPA-assay); IC50 for binding used as a measure of Kd
[7] = read-out: IG-1 Displacement Binding Affinity IC50 = M; Table 12
[8] = read-out: AlphaScreen Binding Affinity IC50 = M, Table 12

## RGNVGGGSLDESFYEWFERQLGR [Peptide F271]
[1]; [6]
  Kd: 1700 nM
[1]; [7]
  IC50: 1700 nM
[2]; [8]
  IC50: 5600 nM

## GSGGYASRDESFYEWFERQLA [Peptide F276]
[1]; [6]
  Kd: 1600 nM
[1]; [7]
  IC50: 1600 nM
[2]; [8]
  IC50: 5100 nM

## VEGRGLFYDLLRQLLARRQNG [Peptide F158]
[3]
  Kd: 900 nM

## Ac-VGRASGPPENFYDWPGRQLSLQSGEQRR [Peptide F287]
[1]; [6]
  Kd: 7600 nM
[1]; [7]
  IC50: 7600 nM
[2]; [8]
  IC50: 8400 nM

## DDDKGSLDESFYDWFERQLGTFYSCLASLLTGTPQPNRGPWERCR [Peptide F110]
[3]
  Kd: 1000 nM

## EYRQECACSVGAVGFLCGLACLARSGE [Peptide F206]
[3]
  Kd: 16000 nM

## GRVDWLQRNANFYDWFVAELG [Peptide F426]
[1]; [6]
  Kd: > 20000 nM

## KLHNLMFYYGLQRLVWGAGLG [Peptide F159]
[3]
  Kd: 5000 nM

## EDDDQNWEGYEWFERQLGK [Peptide F262]
[3]
  Kd: 750 nM
[1]; [6]
  Kd: 2300 nM

## GYSWLRDVLMEKQAQLKREGSVGRQK [Peptide F337]
[1]; [6]
  Kd: > 20000 nM

## SAAQLFFQESFYDWFLRQVAESSQPN [Peptide F162]
[3]
  Kd: 2100 nM

## GEHPCQLLISLCGDDCDPVNCGGGS [Peptide F436]
[1]; IC50 for binding used as a measure of Kd; read-out: HIGFIR Affinity (SPA-assay)
  Kd: 22000 nM

## DMGDVECEDPFYDWFACQVRDTEFDE [Peptide F115]
[3]
  Kd: 15000 nM

## SQVQWRFFTPGFGAGLFRVT [Peptide F442]
[1]; [6]
  Kd: > 20000 nM

## QFYGCLLDLSLGVPSFGWRRRCITA [Peptide F138]
[4]
  IC50 in MCF-7S8: alone: no effect

## GSLDESFYDWFERQLGADTKSPRWGSGTREHQGARGGAPGR [Peptide F285]
[1]; [6]
  Kd: 1700 nM

## SFYSCLESLVNGPAEKSRGQWDGCRK [Peptide F250]
[4]
  IC50 in MCF-7S8: in presence of IGF-1: agonistic
  IC50 in MCF-7S8: alone: no effect
[5]; Table 11
  Cell (nM): 5-10,000 nM

## EISFRCQLFVLAGMHPCPVDVGGEGFE [Peptide F170]
[4]
  IC50 in MCF-7S8: alone: no effect

## EDWLRCLGVILSGGLTELANTGCVQGE [Peptide F167]
[4]
  IC50 in MCF-7S8: in presence of IGF-1: Agonistic

## GVDEVRAWLWCQISGLGCES [Peptide F114]
[3]
  Kd: 56 nM
[1]; [6]
  Kd: 71 nM

## Ac-ESDVWAQPQRRNDWPGYHWLSR [Peptide F288]
[1]; [6]
  Kd: > 20000 nM
[1]; [7]
  IC50: > 20000 nM
[2]; [8]
  IC50: 320 nM

## SFYSCLESLVTGPAEKSRGQWEGCRK [Peptide F292]
[4]
  IC50 in MCF-7S8: in presence of IGF-1: No effect
  IC50 in MCF-7S8: alone: no effect

## Ac-VEGROLFYDLLROLLAMRRNG [Peptide F235]
[4]
  IC50 in MCF-7S8: in presence of IGF-1: No effect
  IC50 in MCF-7S8: alone: no effect

## EGSLDESFYDWFERQLG-POX2-GYSWLRDVLMEKQAQLKREGSVGRQE [Peptide F255]
[1]; [6]
  Kd: 13000 nM
[1]; [7]
  IC50: 13000 nM
[2]; [8]
  IC50: 1600 nM
[5]; read-out: Antagonism MCF7 Cells IC50 = M, Table 12
  IC50: 18000 nM

## pyro-QFLRFLWSYFVGTVEGGLRGA [Peptide F445]
[1]; [6]
  Kd: > 20000 nM

## EFLTRLLERLGLSWERGEAGGPYAQAE [Peptide F175]
[3]
  Kd: 13000 nM

## EEFFQNWEGYNWFNEQLGKEGRVDDAFYEWFERQLGE [Peptide F413]
[1]; [6]
  Kd: 360 nM

## ELQGFCELLATVTGVTGLGCLDYQPIE [Peptide F202]
[4]
  IC50 in MCF-7S8: in presence of IGF-1: antagonistic; also recorded: no effect

## ESYGDCRDRPCGDAPNFYDWFVQQASE [Peptide F270]
[4]
  IC50 in MCF-7S8: in presence of IGF-1: Agonistic; also recorded: No effect

## VGRASGFPENFYDWFGRQLSLQSGEQ [Peptide F160]
[3]
  Kd: 6700 nM

## AWRYPEDDLEFWLARGRGYG [Peptide F435]
[1]; [6]
  Kd: 13000 nM

## TFYSGPVSLLTGTPRTNRSAWERGRGSLDDSFYDWFERQLSR [Peptide F274]
[1]; [6]
  Kd: 1400 nM
[1]; [7]
  IC50: 1400 nM

## ERDDQDWEGYEWFEEQVGK [Peptide F260]
[3]
  Kd: 1800 nM

## GWRYGSFFRWRFEEGTPPFH [Peptide F432]
[1]; [6]
  Kd: > 20000 nM

## EEDDQNWEGYNWFNEQLGK [Peptide F261]
[3]
  Kd: 710 nM
[1]; [6]
  Kd: 2400 nM

## WLDQERAWLWCEISGRGCLS [Peptide F104]
[3]
  Kd: > 20000 nM
[1]; [6]
  Kd: > 20000 nM

## CWARPCGDAANFYDWFVQQAS [Peptide F103]
[3]
  Kd: 2300 nM

## TLNPRGPWEGSRGSMDDSFYRWFERQLE [Peptide F272]
[1]; [6]
  Kd: 1500 nM
[1]; [7]
  IC50: 1500 nM

## EVTSAGQWEGYEWFLGALHAE [Peptide F210]
[3]
  Kd: > 20000 nM

## PHWTSIRFWRFGPEPRWSGT [Peptide F443]
[1]; [6]
  Kd: > 20000 nM

## GSLDESFYDWFERQLGAVVGRDGGPITRDVGGDGRRGYNV [Peptide F286]
[1]; [6]
  Kd: 2300 nM

## EERATPRWRGYEWFDAQVERE [Peptide F211]
[4]
  IC50 in MCF-7S8: in presence of IGF-1: No effect

## EGRVDDAFYEWFERQLGEEEDDQNWEGYNWFNEQLGX [Peptide F411]
[1]; [6]
  Kd: 290 nM

## ENRSGELWEGYGWFNMQVRGE [Peptide F212]
[4]
  IC50 in MCF-7S8: in presence of IGF-1: No effect

## WLDQERAWLWCEISGRGCLSDDDKGSLDESFYDWFERQLG [Peptide F107]
[3]
  Kd: 1400 nM

## SFYSCLESLVNGGAERSEGOWEGCR [Peptide F113]
[3]
  Kd: 560 nM
[1]; [6]
  Kd: 840 nM
[2]; read-out: Binding (nM) AlphaScreen, Table 11
  IC50: 560 nM
[5]; read-out: Cell, Table 11
  IC50: 1000 nM

## EFSGFCMGLERLSOVSLGYCGAGOGGE [Peptide F169]
[4]
  IC50 in MCF-7S8: alone: no effect

## ETGRECWGRPCGEADSFYDWFVQQGSE [Peptide F267]
[5]; Table 12
  Antagonism MCF7 Cells IC50 = M: agonist

## QPLRDLWSYFVGTVEGGLRGA [Peptide F427]
[1]; [6]
  Kd: > 20000 nM
